Reference: PubChem BioAssay AID602141 (Sanford-Burnham Center for Chemical Genomics, 2011)
The entries are a selection whose mix differs from that of the whole data set. Activity calls are given as the source filed them.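 Rule for the calls: active = corrected activity change at or below -50% at 5 µM; inactive = the rest.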

Experiment: cytotoxicity in KKLEB CF airway cells, primary screen, cytotoxicity control for CF NF-kB inhibitor project, cell-based, uHTS, fluorescence assay plates (AID 602141)
Conditions: KKLEB CF airway cells viability, ATPlite luminescence, overnight; at 5 µM; hits give low values; cells stimulated with P. aeruginosa culture filtrate

Row | SMILES | activity change (cytotoxicity)
1 | O=C(O)C(O)c1ccc(N(CCCl)CCCl)cc1 (stereo not drawn) | inactive: -7.1%
2 | CCOC(=O)Nc1ccc([As](=O)(O)O)c(O)c1 | inactive: -8.8%
3 | O=[N+]([O-])c1cc([N+](=O)[O-])c(-c2ccn[nH]2)s1 | inactive: -0.9%
4 | CCN(CC)C(=S)SC(NC=O)C(Cl)(Cl)Cl (stereo not drawn) | inactive: 6.2%
5 | O=C(OC1CN2CCC1CC2)c1cccc2[nH]cnc12 (stereo not drawn) | inactive: -1.5%
6 | CC(C)NC(=O)NP(=O)(Oc1ccccc1)Oc1ccccc1 | inactive: -1.3%
7 | CC(C)c1ccc(OP(=O)(Nc2ccccn2)Oc2ccccc2F)cc1 (stereo not drawn) | inactive: 1.1%
8 | COC(=O)C1(C)COP(=O)(N2CCCCCC2)OC1 (stereo not drawn) | inactive: -0.4%
9 | ClCCSc1nnc(-c2cccnc2)o1 | inactive: 6.6%
10 | Cc1ccc2nc3c(c(C)c2c1)CC(C(Cl)Cl)S3 (stereo not drawn) | inactive: -4.2%
11 | Cc1ccc(OP(=O)(Nc2ccc([N+](=O)[O-])cn2)Oc2ccc(C)cc2)cc1 | inactive: -5.7%
12 | COc1cc(C(=O)NCC2(N3CCOCC3)CCCCC2)ccc1OCC(C)C | inactive: -0.3%
13 | O=[N+]([O-])c1ccc(-c2cc([N+](=O)[O-])c(O)c([N+](=O)[O-])c2)cc1 | inactive: -5.2%
14 | C[As](=O)(O)c1cccc(C(=O)O)c1 | inactive: 0.3%
15 | O=[As](O)(c1ccc(O)cc1)c1ccccc1O | inactive: 14.5%
16 | COc1ccc(N/C(=N/P(=O)(N2CCOCC2)N2CCOCC2)N2CCOCC2)cc1 | inactive: 13.2%
17 | O=[N+]([O-])c1cc(Oc2ccc([N+](=O)[O-])cc2C(F)(F)F)cc([N+](=O)[O-])c1 | inactive: 15.8%
18 | COc1cc(I)ccc1[As](=O)(O)O | inactive: -3.4%
19 | COc1ccc2nc(NP(=O)(c3ccccc3)c3ccccc3)sc2c1 | inactive: 11.2%
20 | O=P1(N(CCCl)CCCl)OCCCN1CCCl (stereo not drawn) | inactive: 4%
21 | O=P1(N(CCCl)CCCl)Nc2ccccc2N1 | inactive: 7.6%
22 | Cc1cc(=O)[nH]c(N[N+](=O)[O-])n1 | inactive: 9.3%
23 | O=C(OC1CN2CCC1CC2)C12CC3CC(CC(C3)C1)C2 (stereo not drawn) | inactive: -4.4%
24 | Cc1c2c(nc3ccccc13)SC(C(Cl)Cl)C2 (stereo not drawn) | inactive: -37.5%
25 | CCOP(=O)(Nc1cccc2ccccc12)OCC | inactive: 0.6%

Row | SMILES | activity change (cytotoxicity)
26 | COc1cc(C2NCCC3(OCCO3)C2(C)C)cc(OC)c1OC (stereo not drawn) | inactive: 2.6%
27 | CCCOP(=S)(Nc1nc(N)cc(=O)[nH]1)OCCC | inactive: -4%
28 | Cc1ccc(NCCc2c([N+](=O)[O-])cc([N+](=O)[O-])cc2[N+](=O)[O-])cc1 | inactive: -2.9%
29 | Nc1cccc2c([As](=O)(O)O)cccc12 | inactive: -1.9%
30 | O=[As](O)(c1cccc(O)c1)c1cccc(O)c1 | inactive: -4.9%
31 | Cc1cccc(OCC(=O)OC2CN3CCC2CC3)c1 (stereo not drawn) | inactive: 6.2%
32 | CS(=O)(=O)c1ccc(Cl)c(NC(=O)COC(=O)C(O)(c2ccccc2)c2ccccc2)c1 | inactive: -2.4%
33 | COc1cc(C(=O)NCC2(N3CCOCC3)CCCCC2)cc(Cl)c1OC(C)C | inactive: -0.3%
34 | O=[As](O)(O)c1cccnc1 | inactive: 10.2%
35 | O=C(OC1CN2CCC1CC2)c1ccc(Cl)cc1 (stereo not drawn) | inactive: -10.3%
36 | CN(C(=O)Cc1ccc(Cl)c(Cl)c1)[C@H]1CC[C@@]2(CCCO2)C[C@@H]1N1CCCC1 | inactive: -2.7%
37 | CN(C)C(=O)c1cc([N+](=O)[O-])cc2c1-c1c(cc([N+](=O)[O-])cc1[N+](=O)[O-])C2=O | inactive: -10%
38 | O=[N+]([O-])c1ccc2c(c1)nnn2O | inactive: 4.2%
39 | CN(C(=O)Cc1ccccc1)[C@@H]1CC[C@]2(CCCO2)C[C@H]1N1CCCC1 | inactive: -8.9%
40 | CCOP1(=S)c2c(C)nn(CCC#N)c2N=C(c2ccc(F)cc2)N1C (stereo not drawn) | inactive: -8.6%
41 | N#CCCN(C(=O)COC(=O)C(O)(c1ccccc1)c1ccccc1)c1ccc(F)cc1 | inactive: 3.4%
42 | NC(=O)Nc1ccc([As](=O)(O)O)cc1 | inactive: -6.5%
43 | O=C(O)COc1ccc([As](=O)(O)O)cc1[N+](=O)[O-] | inactive: 12.5%
44 | Nc1ccccc1[As](=O)(O)c1ccccc1 | inactive: 5.6%
45 | CS(=O)(=O)c1cc([N+](=O)[O-])c2no[n+]([O-])c2c1 | inactive: 2.4%
46 | O=P(Nc1nccs1)(c1ccccc1)c1nc2ccccc2s1 (stereo not drawn) | inactive: -20.4%
47 | O=P(Nc1nccs1)(Oc1ccccc1)Oc1ccccc1 | inactive: 1.2%
48 | CCOP1(=S)c2c(C)nn(CCC#N)c2N=C(c2ccccc2F)N1C (stereo not drawn) | inactive: -0.6%
49 | NS(=O)(=O)c1cccc(NC(=O)COC(=O)C(O)(c2ccccc2)c2ccccc2)c1 | inactive: 8.5%
50 | O=P1(Nc2ccc(Br)cn2)COc2ccccc2OC1 | inactive: 7.5%

Row | SMILES | activity change (cytotoxicity)
51 | Cc1ccc(OCC(=O)OC2CN3CCC2CC3)cc1 (stereo not drawn) | inactive: -4.9%
52 | O=[As](O)(c1cccs1)c1cccs1 | inactive: 2.5%
53 | Nc1cccc([As](=O)(O)c2ccccc2)c1 | inactive: 6.2%
54 | O=P1(Nc2ncccn2)COc2ccccc2OC1 | inactive: -3.9%
55 | Cc1ccc(S(=O)(=O)N(CCCN)CCCc2c(C)nc(N)[nH]c2=O)cc1 | inactive: -5.9%
56 | CCCC1OP(=O)(Nc2ccccc2)OCC1CC (stereo not drawn) | inactive: -9.6%
57 | O=C(/C=C/c1ccccc1)OC1CN2CCC1CC2 (stereo not drawn) | inactive: -0.3%
58 | CN(C)C1(CNC(=O)c2ccc(S(C)(=O)=O)cc2)CCCCC1 | inactive: 0.7%
59 | Cc1ccc(C(=O)OC2CN3CCC2CC3)cc1 (stereo not drawn) | inactive: 4%
60 | CC1CCC(C(C)C)C(OP(=O)(Nc2ccccn2)c2ccccc2)C1 (stereo not drawn) | inactive: 7.8%
61 | Cc1nn(-c2ccccc2)c2c1P(=O)(N1CCOCC1)N(C)C(c1ccccc1)=N2 (stereo not drawn) | inactive: -2.3%
62 | CC1(CBr)Cn2c(nc3ccccc3c2=O)S1 (stereo not drawn) | inactive: -1.5%
63 | CN(C(=O)Cc1ccc(Cl)c(Cl)c1)[C@@H]1CCCC[C@H]1N1CCCC1 | inactive: -0.5%
64 | CC(C)/C=N\N=C(\N)N[N+](=O)[O-] | inactive: -1.2%
65 | COc1ccccc1CNC(=O)COC(=O)C(O)(c1ccccc1)c1ccccc1 | inactive: -6.1%
66 | CC(C)(C)C(=O)NC(Sc1ncccn1)C(Cl)(Cl)Cl (stereo not drawn) | inactive: 19.3%
67 | Clc1n[nH]nc1-c1nn[nH][15n]1 | inactive: 7%
68 | O=P1(N(CCCl)CCCl)NCCC(C(F)(F)F)O1 (stereo not drawn) | inactive: -9%
69 | CN(CCCl)Cc1cc(Cl)c(NC2=NCCN2)c(Cl)c1 | inactive: -2.4%
70 | CCOP(=O)(Nc1ccc(C)cn1)OCC | inactive: 5.7%
71 | CCOP(=O)(NC(=NC(C)c1ccccc1)NC(C)c1ccccc1)OCC (stereo not drawn) | inactive: 3.9%
72 | CCC1=CC2Cc3nc4ccc(Cl)cc4c(N)c3C(C1)C2 (stereo not drawn) | inactive: -8.8%
73 | O=P1(Nc2ccccn2)COc2ccccc2OC1 | inactive: -1.3%
